PubChem BioAssay (NCI)
Where “and” joins values, the source holds several entries; their conditions need not be identical. Equal entries are not always repeated. Only a part is listed here, and it is no random draw.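 48-hour exposure, single concentration, 96-well plates; percent growth endpoint where 0 means no net growth. Active: below 10.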 Calls of active or inactive are those of the source.

Tests used:
Test in all cases: NCI-60 one-dose screen, 48 h (100 = growth as untreated, 0 = no growth, -100 = all killed)
Conditions in all cases: 10 µM unless noted
NCI/ADR-RES ovarian = test system: NCI/ADR-RES ovarian
T-47D breast = test system: T-47D breast
BT-549 breast = test system: BT-549 breast
MDA-MB-435 melanoma = test system: MDA-MB-435 melanoma
SW-620 colon = test system: SW-620 colon
MCF7 breast = test system: MCF7 breast
HCT-116 colon = test system: HCT-116 colon
HCC-2998 colon = test system: HCC-2998 colon
KM12 colon = test system: KM12 colon

Measured: growth

ClC1(Cl)SC(Cl)(Cl)C(Cl)(Cl)C1(Cl)Cl
inactive: NCI/ADR-RES ovarian 102% | T-47D breast 91.1% | BT-549 breast 106% | MDA-MB-435 melanoma 108% | SW-620 colon 104% | MCF7 breast 91.6% | HCT-116 colon 104% | HCC-2998 colon 90.3% | KM12 colon 98.1%

O=[N+]([O-])c1cc(Cl)c(O)c([N+](=O)[O-])c1
inactive: NCI/ADR-RES ovarian 115% | T-47D breast 94.5% | BT-549 breast 105% | MDA-MB-435 melanoma 108% | SW-620 colon 102% | MCF7 breast 103% | HCT-116 colon 97.3% | HCC-2998 colon 113% | KM12 colon 101%

Cc1ccc(S(=O)(=O)N(CCCN)CCCc2c(C)nc(N)[nH]c2=O)cc1
inactive: NCI/ADR-RES ovarian 106% | T-47D breast 107% | BT-549 breast 98.1% | MDA-MB-435 melanoma 101% | SW-620 colon 100% | MCF7 breast 91.8% | HCT-116 colon 97.1% | HCC-2998 colon 117% | KM12 colon 113%

COc1ccc(N)c([N+](=O)[O-])c1[N+](=O)[O-]
inactive: NCI/ADR-RES ovarian 99.2% | T-47D breast 96.7% | BT-549 breast 114% | MDA-MB-435 melanoma 104% | SW-620 colon 106% | MCF7 breast 95.7% | HCT-116 colon 92.6% | HCC-2998 colon 113% | KM12 colon 114%

C/C(N)=N\P(=O)(OCc1ccccc1)OCc1ccccc1
inactive: NCI/ADR-RES ovarian 98.6% | T-47D breast 115% | BT-549 breast 106% | MDA-MB-435 melanoma 104% | SW-620 colon 103% | MCF7 breast 98.7% | HCT-116 colon 98.5% | HCC-2998 colon 107% | KM12 colon 105%

Nc1cccc2c([As](=O)(O)O)cccc12
inactive: NCI/ADR-RES ovarian 102% | T-47D breast 103% | BT-549 breast 113% | MDA-MB-435 melanoma 110% | SW-620 colon 112% | MCF7 breast 102% | HCT-116 colon 96.2% | HCC-2998 colon 126% | KM12 colon 111%

CN(CCCl)/N=N/c1nc2nc[nH]c(=O)c2[nH]1
inactive: NCI/ADR-RES ovarian 105% | T-47D breast 84.2% | BT-549 breast 95.4% | MDA-MB-435 melanoma 100% | SW-620 colon 105% | MCF7 breast 90.9% | HCT-116 colon 94.6% | HCC-2998 colon 95.3% | KM12 colon 102%

CCOP(=O)(CCCBr)OCC
inactive: NCI/ADR-RES ovarian 118% | T-47D breast 101% | BT-549 breast 112% | MDA-MB-435 melanoma 105% | SW-620 colon 105% | MCF7 breast 91.8% | HCT-116 colon 103% | HCC-2998 colon 107% | KM12 colon 116%

O=C(O)COc1ccc([As](=O)(O)O)cc1[N+](=O)[O-]
inactive: NCI/ADR-RES ovarian 96.4% | T-47D breast 97.4% | BT-549 breast 113% | MDA-MB-435 melanoma 115% | SW-620 colon 98.4% | MCF7 breast 97.5% | HCT-116 colon 94.6% | HCC-2998 colon 96.1% | KM12 colon 109%

ClCCNC(Cc1ccccc1)c1ccccc1 (configuration not stated)
inactive: NCI/ADR-RES ovarian 97.2% | T-47D breast 75% | BT-549 breast 99.2% | MDA-MB-435 melanoma 100% | SW-620 colon 104% | MCF7 breast 81.7% | HCT-116 colon 84.9% | HCC-2998 colon 97.1% | KM12 colon 95.7%

CN(CCCl)CC1OC(O)C(O)C(O)C1O (configuration not stated)
inactive: NCI/ADR-RES ovarian 107% | T-47D breast 97.9% | BT-549 breast 101% | MDA-MB-435 melanoma 100% | SW-620 colon 103% | MCF7 breast 99.6% | HCT-116 colon 98% | HCC-2998 colon 112% | KM12 colon 111%

CC(Cc1ccccc1)N(CCCl)Cc1ccccc1 (configuration not stated)
inactive: NCI/ADR-RES ovarian 103% | T-47D breast 86.2% | BT-549 breast 100% | MDA-MB-435 melanoma 108% | SW-620 colon 101% | MCF7 breast 97.2% | HCT-116 colon 92% | HCC-2998 colon 99.9% | KM12 colon 102%

CC(=O)Nc1ccc([As](=O)(O)O)cc1
inactive: NCI/ADR-RES ovarian 112% | T-47D breast 105% | BT-549 breast 109% | MDA-MB-435 melanoma 77.3% | SW-620 colon 103% | MCF7 breast 105% | HCT-116 colon 98.9% | HCC-2998 colon 110% | KM12 colon 101%

Nc1ccccc1[As](=O)(O)c1ccccc1
inactive: NCI/ADR-RES ovarian 95.4% | T-47D breast 99.1% | BT-549 breast 109% | MDA-MB-435 melanoma 103% | SW-620 colon 97.2% | MCF7 breast 96.5% | HCT-116 colon 103% | HCC-2998 colon 107% | KM12 colon 98%

CC(=O)Nc1ccc([As](=O)(O)O)c(O)c1
inactive: NCI/ADR-RES ovarian 109% | T-47D breast 94.9% | BT-549 breast 84.9% | MDA-MB-435 melanoma 101% | SW-620 colon 98.8% | MCF7 breast 90.6% | HCT-116 colon 107% | HCC-2998 colon 106% | KM12 colon 106%

CCCCOP(OCCCC)OCCCC
inactive: NCI/ADR-RES ovarian 107% | T-47D breast 105% | BT-549 breast 107% | MDA-MB-435 melanoma 116% | SW-620 colon 107% | MCF7 breast 98.2% | HCT-116 colon 97.2% | HCC-2998 colon 113% | KM12 colon 113%

Cc1ccc(S(=O)(=O)n2cc(C3(O)CC(CC#N)OC3=O)c3cc(Br)ccc32)cc1 (configuration not stated)
inactive: NCI/ADR-RES ovarian 113% | T-47D breast 128% | BT-549 breast 108% | MDA-MB-435 melanoma 109% | SW-620 colon 100% | MCF7 breast 104% | HCT-116 colon 111% | HCC-2998 colon 125% | KM12 colon 100%

O=[As]1(O)c2ccccc2-c2ccccc21
inactive: NCI/ADR-RES ovarian 93% | T-47D breast 110% | BT-549 breast 111% | MDA-MB-435 melanoma 110% | SW-620 colon 106% | MCF7 breast 97.8% | HCT-116 colon 89.5% | HCC-2998 colon 140% | KM12 colon 109%

CC1CCNP(=O)(N(CCCl)CCCl)O1 (configuration not stated)
inactive: NCI/ADR-RES ovarian 109% | T-47D breast 102% | BT-549 breast 120% | MDA-MB-435 melanoma 100% | SW-620 colon 88.3% | MCF7 breast 92.1% | HCT-116 colon 108% | HCC-2998 colon 115% | KM12 colon 94.9%

CCOP(=O)(NC1CCCCC1)OCC
inactive: NCI/ADR-RES ovarian 100% | T-47D breast 101% | BT-549 breast 99.5% | MDA-MB-435 melanoma 108% | SW-620 colon 105% | MCF7 breast 99.3% | HCT-116 colon 96.8% | HCC-2998 colon 102% | KM12 colon 103%

CCOP(=O)(Nc1ccccc1Cl)OCC
inactive: NCI/ADR-RES ovarian 96.8% | T-47D breast 98.5% | BT-549 breast 85.6% | MDA-MB-435 melanoma 105% | SW-620 colon 93.6% | MCF7 breast 106% | HCT-116 colon 93.1% | HCC-2998 colon 107% | KM12 colon 90.9%

CC[C@H](C)[C@@H]1NC(=O)/C(=C(\C)O)C1=O
inactive: NCI/ADR-RES ovarian 105% | T-47D breast 103% | BT-549 breast 95.4% | MDA-MB-435 melanoma 96.5% | SW-620 colon 103% | MCF7 breast 92.9% | HCT-116 colon 115% | HCC-2998 colon 123% | KM12 colon 94.9%

O=S1(=O)CC(Sc2ccccc2)[C@@H](Cl)C1 (some centres not stated)
inactive: NCI/ADR-RES ovarian 110% | T-47D breast 88.4% | BT-549 breast 102% | MDA-MB-435 melanoma 107% | SW-620 colon 101% | MCF7 breast 103% | HCT-116 colon 103% | HCC-2998 colon 108% | KM12 colon 106%

Nc1ccc(N(CCCl)CCCl)cc1
inactive: NCI/ADR-RES ovarian 62.6% | T-47D breast 59.6% | BT-549 breast 84.3% | MDA-MB-435 melanoma 88.3% | SW-620 colon 51.5% | MCF7 breast 34.9% | HCT-116 colon 64.5% | HCC-2998 colon 86% | KM12 colon 83.1%

ClCCN1Cc2ccccc2C1
inactive: NCI/ADR-RES ovarian 107% | T-47D breast 93.5% | BT-549 breast 115% | MDA-MB-435 melanoma 94.7% | SW-620 colon 89.4% | MCF7 breast 97.7% | HCT-116 colon 92.2% | HCC-2998 colon 99.1% | KM12 colon 99.8%

O=P(O)(O)F
inactive: NCI/ADR-RES ovarian 111% | T-47D breast 106% | BT-549 breast 111% | MDA-MB-435 melanoma 102% | SW-620 colon 102% | MCF7 breast 100% | HCT-116 colon 109% | HCC-2998 colon 113% | KM12 colon 102%

O=[N+]([O-])c1ccc(-c2cc([N+](=O)[O-])c(O)c([N+](=O)[O-])c2)cc1
inactive: NCI/ADR-RES ovarian 101% | T-47D breast 92.2% and 98.9% | BT-549 breast 106% and 98.6% | MDA-MB-435 melanoma 104% and 107% | SW-620 colon 103% and 105% | MCF7 breast 108% and 104% | HCT-116 colon 112% and 99.9% | HCC-2998 colon 94.9% and 136% | KM12 colon 105% and 107%

O=C1OP(=O)(Cl)Oc2ccccc21 (configuration not stated)
inactive: NCI/ADR-RES ovarian 102% | T-47D breast 93.9% | BT-549 breast 110% | MDA-MB-435 melanoma 105% | SW-620 colon 98.6% | MCF7 breast 98.2% | HCT-116 colon 97.7% | HCC-2998 colon 104% | KM12 colon 104%
